What all share (experiment): In vitro competitive activity-based protein profiling (Table 1, mouse IC50)
Common to all, as to assay type: biochemical

Chains of the proteins cited; added tags and fusions are not shown. Lines headed by an entry give the natural chain unless they say otherwise; changes in a name come on top.
UniProt O35678, whole entry, looked up: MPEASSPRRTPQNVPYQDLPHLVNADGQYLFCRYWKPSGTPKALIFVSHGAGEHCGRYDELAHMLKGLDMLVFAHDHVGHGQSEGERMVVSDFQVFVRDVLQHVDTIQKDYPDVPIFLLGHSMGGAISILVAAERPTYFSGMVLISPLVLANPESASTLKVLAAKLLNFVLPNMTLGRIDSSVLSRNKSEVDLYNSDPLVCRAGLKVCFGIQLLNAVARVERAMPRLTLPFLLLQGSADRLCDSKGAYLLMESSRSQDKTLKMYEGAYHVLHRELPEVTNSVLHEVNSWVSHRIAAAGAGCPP
UniProt Q8R2Y0: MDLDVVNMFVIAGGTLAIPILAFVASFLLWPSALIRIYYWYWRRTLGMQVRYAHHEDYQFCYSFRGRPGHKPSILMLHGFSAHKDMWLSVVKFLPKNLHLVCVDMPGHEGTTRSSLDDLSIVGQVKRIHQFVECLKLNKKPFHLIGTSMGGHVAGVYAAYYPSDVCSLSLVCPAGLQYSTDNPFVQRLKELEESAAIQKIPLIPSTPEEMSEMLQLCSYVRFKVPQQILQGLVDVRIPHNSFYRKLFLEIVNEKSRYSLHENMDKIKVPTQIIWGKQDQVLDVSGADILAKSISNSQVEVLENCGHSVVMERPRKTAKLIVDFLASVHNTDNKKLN
UniProt O08914, whole entry, looked up: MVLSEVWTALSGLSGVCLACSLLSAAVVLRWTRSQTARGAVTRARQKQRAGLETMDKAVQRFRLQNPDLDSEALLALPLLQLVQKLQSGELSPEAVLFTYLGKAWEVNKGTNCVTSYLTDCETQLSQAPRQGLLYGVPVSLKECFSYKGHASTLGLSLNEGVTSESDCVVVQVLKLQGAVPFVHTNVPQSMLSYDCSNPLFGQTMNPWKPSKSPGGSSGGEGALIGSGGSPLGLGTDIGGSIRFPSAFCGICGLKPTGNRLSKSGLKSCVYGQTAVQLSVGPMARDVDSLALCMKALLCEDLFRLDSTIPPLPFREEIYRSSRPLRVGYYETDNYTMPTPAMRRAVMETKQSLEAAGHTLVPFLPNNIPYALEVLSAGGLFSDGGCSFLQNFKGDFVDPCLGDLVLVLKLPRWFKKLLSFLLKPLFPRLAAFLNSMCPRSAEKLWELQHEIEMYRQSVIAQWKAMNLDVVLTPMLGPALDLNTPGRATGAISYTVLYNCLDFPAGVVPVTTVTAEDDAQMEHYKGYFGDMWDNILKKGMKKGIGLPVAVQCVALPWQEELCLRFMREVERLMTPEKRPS

One assay deals with MAGL (Mus musculus, UniProt O35678). To be noted: read-out: Mouse (IC50 value, nM) MAGL, in vitro competitive ABPP.
A further assay has as its target ABHD6 (Mus musculus, UniProt Q8R2Y0). Particulars: read-out: Mouse (IC50 value, nM) ABHD6, in vitro competitive ABPP.
For another assay, the target named is FAAH (Mus musculus, UniProt O08914). Particulars: read-out: Mouse (IC50 value, nM) FAAH, in vitro competitive ABPP.

Experimental findings from patent US9828379B2 (priority 2013, dated 2017) are described below.

Consider `CCn1cc(CN2CC3CN(C(=O)OC(C(F)(F)F)C(F)(F)F)CC3C2)c(-c2ccc(N3CCOCC3)cc2)n1` (stereo not drawn) [Example 68, 1,1,1,3,3,3-Hexafluoropropan-2-yl 5-([1-ethyl-3-[4-(morpholin-4-yl)phenyl]-1H-pyrazol-4-yl]methyl)-octahydropyrrolo[3,4-c]pyrrole-2-carboxylate], for which the IC50 was less than 100 nM on MAGL, 1000 to 10000 nM at ABHD6 and 1000 to 10000 nM at FAAH.
